Assay results taken from patent publication US4831155A (priority 1984, dated 1989).

Test system: acetylcholinesterase (AchE)
Assay: acetylcholinesterase (AChE) inhibition in the brain and serum after i.p. administration
Assay type: in vivo, rats
Conditions: for AChE inhibition, serum (M ± SE): Table I, 10 min, salicylate
Procedure: The acetylcholinesterase (AchE) inhibition in the brain and serum was tested for the heptyl derivative in comparison with physostigmine. Both physostigmine and heptyl derivative were used in form of salycilate and dissolved in distilled water with carbossimethyl cellulose sodium salt at 2%.
Acetylcholinesterase (AChE) inhibition in the brain
and serum 10 min. after i.p. administration of different
doses of physostigmine and heptyl to rats
Acetylcholinesterase (AChE) inhibition in the brain and in serum after
i.p. administration of equiactive doses of
physostigmine and heptyl, at various time intervals (10-60-120 min.)

[1] = Table II, i.p. equiactive doses: Phys. 0.2, Hept. 1.0 mg/Kg, n=4

## CNC(=O)Oc1ccc2c(c1)[C@]1(C)CCN(C)[C@@H]1N2C [Eserine]
0.10 mg/kg i.p., n=4
  AChE inhibition, serum (M ± SE): 19.55 ± 8.29%
0.15 mg/kg i.p., n=4
  AChE inhibition, serum (M ± SE): 32.93 ± 11.34%
0.20 mg/kg i.p., n=4
  AChE inhibition, serum (M ± SE): 53.68 ± 2.41%
[1]
  % AChE Inhibition, serum, 10 minutes (M ± SE): 53.68 ± 2.41%
  % AChE Inhibition, serum, 60 minutes (M ± SE): 9.82 ± 6.83%
  % AChE Inhibition, serum, 120 minutes (M ± SE): 2.58 ± 1.49%
Brain and serum
  duration of the activity compared with heptyl derivative: much lower
Brain and serum, 10 minutes
  activity measured after 10 minutes compared with heptyl derivative: higher than that of heptyl derivative
Brain and serum, 120 minutes
  activity after 120 minutes: becomes insignificant
